Results taken from patent US20110105565A1, “WATER SOLUBLE SMALL MOLECULE INHIBITORS OF THE CYSTIC FIBROSIS TRANSMEMBRANE CONDUCTANCE REGULATOR” (THE REGENTS OF THE UNIVERSITY OF CALIFORNIA, priority 2008, published 2011).

Chains of the proteins cited; added tags and fusions are not shown.
UniProt P13569, whole entry: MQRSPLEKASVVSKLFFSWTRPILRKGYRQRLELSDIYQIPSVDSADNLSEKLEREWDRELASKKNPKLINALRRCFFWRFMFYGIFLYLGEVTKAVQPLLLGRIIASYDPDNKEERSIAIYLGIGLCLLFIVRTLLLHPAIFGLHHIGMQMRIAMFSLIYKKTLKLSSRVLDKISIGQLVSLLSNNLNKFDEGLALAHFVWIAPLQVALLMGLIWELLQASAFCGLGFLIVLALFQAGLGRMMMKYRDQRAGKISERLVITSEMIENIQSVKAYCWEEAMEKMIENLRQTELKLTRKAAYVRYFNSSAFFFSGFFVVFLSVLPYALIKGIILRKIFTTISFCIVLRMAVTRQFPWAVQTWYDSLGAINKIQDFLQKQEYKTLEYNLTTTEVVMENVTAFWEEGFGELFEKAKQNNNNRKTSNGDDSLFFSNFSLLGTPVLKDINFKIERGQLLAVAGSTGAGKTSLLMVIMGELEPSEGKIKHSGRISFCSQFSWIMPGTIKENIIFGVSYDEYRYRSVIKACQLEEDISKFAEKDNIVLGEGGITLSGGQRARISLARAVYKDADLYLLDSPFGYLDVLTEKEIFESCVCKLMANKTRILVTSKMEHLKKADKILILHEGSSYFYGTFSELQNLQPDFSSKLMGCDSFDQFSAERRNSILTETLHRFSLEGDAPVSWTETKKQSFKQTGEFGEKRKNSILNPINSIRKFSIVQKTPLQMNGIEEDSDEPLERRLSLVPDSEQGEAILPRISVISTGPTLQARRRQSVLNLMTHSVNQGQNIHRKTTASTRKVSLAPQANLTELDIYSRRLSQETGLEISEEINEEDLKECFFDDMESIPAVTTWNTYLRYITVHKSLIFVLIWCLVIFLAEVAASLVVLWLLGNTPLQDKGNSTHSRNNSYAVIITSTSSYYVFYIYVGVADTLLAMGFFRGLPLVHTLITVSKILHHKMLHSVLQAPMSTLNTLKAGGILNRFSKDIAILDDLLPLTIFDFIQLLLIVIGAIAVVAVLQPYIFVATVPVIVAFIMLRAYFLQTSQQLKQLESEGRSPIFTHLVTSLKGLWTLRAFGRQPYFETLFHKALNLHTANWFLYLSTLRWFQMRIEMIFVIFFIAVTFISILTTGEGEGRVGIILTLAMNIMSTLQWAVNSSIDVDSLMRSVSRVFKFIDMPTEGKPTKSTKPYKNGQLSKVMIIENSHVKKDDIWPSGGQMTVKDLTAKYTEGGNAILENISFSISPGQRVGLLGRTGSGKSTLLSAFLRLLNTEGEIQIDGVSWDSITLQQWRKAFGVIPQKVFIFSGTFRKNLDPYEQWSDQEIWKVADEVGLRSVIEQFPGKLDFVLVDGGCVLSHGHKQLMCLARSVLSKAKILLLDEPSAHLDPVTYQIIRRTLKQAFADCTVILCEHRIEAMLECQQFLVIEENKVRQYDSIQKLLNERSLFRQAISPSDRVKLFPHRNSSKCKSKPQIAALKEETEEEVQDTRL

Target: human wildtype CFTR (Homo sapiens, UniProt P13569)
Assay: Fluorescence cell-based assay of CFTR inhibition (YFP iodide influx, FRT cells)
Design: expressed in transfected cells; host or cells: Fisher rat thyroid (FRT) cells
Conditions: structure-activity discussion
Protocol: Fluorescence cell-based assay of CFTR inhibition. CFTR inhibition by thiazolidinone derivative compounds was determined by a fluorescence cell-based assay utilizing doubly transfected cells expressing human wild-type CFTR and a yellow fluorescent protein (YFP) iodide sensor, as described (see, e.g., Galietta, et al., J. Physiol. 281:C1734-C1742 (2001)). Fisher rat thyroid (FRT) cells stably expressing wild-type human CFTR and YFP-H148Q were cultured on 96-well black-wall plates as described (see, e.g., Ma, et al., J. Clin. Invest. 110:1651-1658 (2002)). Cells in 96-well plates were washed three times, and then CFTR was activated by incubation for 15 minutes with an activating cocktail containing 10 μM forskolin, 20 μM apigenin, and 100 μM IBMX. Test compounds were added 5 minutes before assay of iodide influx in which cells were exposed to a 100 mM inwardly directed iodide gradient. YFP fluorescence was recorded for 2 seconds before and 12 seconds after creation of the iodide gradient. Initial rates of iodide influx were computed from the time course of decreasing fluorescence after the iodide gradient.
CFTR-facilitated iodide influx following extracellular iodide addition results in quenching of cytoplasmic YFP fluorescence.

In the case of “(Z)-4-((2,4-dioxo-3-(3- (trifluoromethyl) phenyl) thiazolidin-5- ylidene)methyl)benzoic acid [Compound 47]”, the “CFTR inhibitory activity (in words)” value is reported as “inactive”.
